Laboratory results reported in publication PMC3272148 (2011).

Amino acid sequences for entries named in this document (tags omitted). Residues count along the entry.
UniProt G1SYA7, 1-469: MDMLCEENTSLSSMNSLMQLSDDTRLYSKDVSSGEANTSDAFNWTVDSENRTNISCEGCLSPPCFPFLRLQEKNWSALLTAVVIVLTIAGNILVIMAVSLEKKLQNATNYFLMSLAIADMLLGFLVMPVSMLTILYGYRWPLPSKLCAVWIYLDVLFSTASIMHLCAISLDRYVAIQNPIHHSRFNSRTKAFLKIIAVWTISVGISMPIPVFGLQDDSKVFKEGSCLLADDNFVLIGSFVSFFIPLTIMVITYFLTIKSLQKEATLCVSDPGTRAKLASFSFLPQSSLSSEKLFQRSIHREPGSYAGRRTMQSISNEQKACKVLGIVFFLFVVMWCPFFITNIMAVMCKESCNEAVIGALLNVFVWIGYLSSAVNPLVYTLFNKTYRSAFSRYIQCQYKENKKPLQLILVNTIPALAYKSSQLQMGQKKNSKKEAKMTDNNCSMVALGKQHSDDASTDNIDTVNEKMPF

Target: serotonin2A (5-HT2A) receptor (Oryctolagus cuniculus, UniProt G1SYA7)

| Compound | Ki [nM] |
| --- | --- |
| COc1cc(CC(C)N)c(OC)cc1I (racemic) [DOI, (±)-1-(2,5-dimethoxy-4-iodophenyl)-2-aminopropane] | 12.5 |
| CCN(CC)C(=O)[C@@H]1C=C2c3cccc4[nH]cc(c34)C[C@H]2N(C)C1 [LSD] | 0.46 |
